ChEMBL document CHEMBL4376880, “Developing Inhibitors of the p47phox-p22phox Protein-Protein Interaction by Fragment-Based Drug Discovery” (J Med Chem, 2020)

How the values were obtained:
[1] = target: T1, Neutrophil cytosol factor 1 (Homo sapiens, UniProt P14598)
[2] = target: T1, Neutrophil cytosol factor 1; remark: listed apart in the source
[3] = target: T1, Neutrophil cytosol factor 1; remark: listed apart in the source
[4] = target: T1, Neutrophil cytosol factor 1; remark: listed apart in the source

**Q.** With CN1CCCN(Cc2ccc(CN)cc2)CC1 as the compound, how does the ΔTm [1] read?
**A.** 2 °C

**Q.** What about the ΔTm [2] of the same compound?
**A.** 0.5 °C

**Q.** What about the ΔTm [3] of the same compound?
**A.** 1.1 °C

**Q.** What about the ΔTm [4] of the same compound?
**A.** 0.3 °C
